pIC50, pKi: −log10 of the molar value. Counter-ions that a name gives are not always drawn. Like-named read-outs stand apart in the source and are kept apart here.
Columns and labels:
[1] = tested on: male Sprague–Dawley rats
[2] = tested on: male Sprague–Dawley rats; details: AUC −25 to 0 min before PCP
[3] = biological target: 5-HT3R (Cavia porcellus, UniProt O70212); details: 100 nM; percent of maximal contraction of guinea pig ileum induced by control agonist (5-HT)
[4] = biological target: h5-HT6R (Homo sapiens, UniProt P50406); assay: Inhibition of 5-CT-induced cAMP production in 1321N1 cells expressing h5-HT6R; assay type: cell-based; parameters: host or cells: 1321N1; details: 10^–6 M, percent inhibition of control agonist response
[5] = biological target: T1, Serotonin 5-HT7 (Homo sapiens, UniProt P34969); assay: Eurofins SafetyScreen panel; assay type: binding
T1 construct: Eurofins (contract assay) 272320

Amino acid sequences for entries named in this document (tags omitted). Residues count along the entry.
UniProt O70212, 20-490: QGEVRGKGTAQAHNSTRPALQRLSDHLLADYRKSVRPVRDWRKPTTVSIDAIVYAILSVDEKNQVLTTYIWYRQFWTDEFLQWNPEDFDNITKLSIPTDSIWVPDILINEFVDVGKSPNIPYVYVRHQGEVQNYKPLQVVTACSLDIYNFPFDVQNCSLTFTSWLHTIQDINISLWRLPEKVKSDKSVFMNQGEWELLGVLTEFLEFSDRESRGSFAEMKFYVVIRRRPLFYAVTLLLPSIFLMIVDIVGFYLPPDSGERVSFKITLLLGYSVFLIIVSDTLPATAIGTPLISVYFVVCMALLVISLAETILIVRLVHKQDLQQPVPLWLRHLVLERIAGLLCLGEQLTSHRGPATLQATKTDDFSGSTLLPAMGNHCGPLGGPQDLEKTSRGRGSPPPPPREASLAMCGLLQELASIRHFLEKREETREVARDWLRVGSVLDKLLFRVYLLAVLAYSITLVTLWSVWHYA
UniProt P50406, whole entry: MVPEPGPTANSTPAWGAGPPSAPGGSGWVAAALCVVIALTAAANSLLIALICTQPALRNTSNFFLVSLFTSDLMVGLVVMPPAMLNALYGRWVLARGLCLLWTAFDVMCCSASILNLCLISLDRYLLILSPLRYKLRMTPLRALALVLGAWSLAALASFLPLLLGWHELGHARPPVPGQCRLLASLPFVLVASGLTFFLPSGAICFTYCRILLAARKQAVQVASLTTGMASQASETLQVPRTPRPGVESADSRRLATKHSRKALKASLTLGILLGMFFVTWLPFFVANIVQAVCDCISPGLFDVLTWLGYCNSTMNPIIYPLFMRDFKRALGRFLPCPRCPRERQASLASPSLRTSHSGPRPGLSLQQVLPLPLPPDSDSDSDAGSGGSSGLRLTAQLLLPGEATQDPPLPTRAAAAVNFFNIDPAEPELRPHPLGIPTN
UniProt P34969, whole entry: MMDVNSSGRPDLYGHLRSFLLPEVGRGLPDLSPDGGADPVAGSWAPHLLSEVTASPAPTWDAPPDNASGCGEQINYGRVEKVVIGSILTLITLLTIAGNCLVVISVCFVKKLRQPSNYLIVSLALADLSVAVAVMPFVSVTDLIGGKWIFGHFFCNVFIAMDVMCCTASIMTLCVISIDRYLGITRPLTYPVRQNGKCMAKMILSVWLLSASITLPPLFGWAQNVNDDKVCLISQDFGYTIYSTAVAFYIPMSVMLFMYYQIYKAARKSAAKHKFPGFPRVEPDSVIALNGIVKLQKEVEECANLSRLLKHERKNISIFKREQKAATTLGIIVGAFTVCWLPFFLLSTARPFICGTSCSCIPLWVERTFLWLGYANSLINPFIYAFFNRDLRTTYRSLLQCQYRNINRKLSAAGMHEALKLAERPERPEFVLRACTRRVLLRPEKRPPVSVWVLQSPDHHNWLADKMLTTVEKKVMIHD
UniProt P34969, 1-432 limits assumed: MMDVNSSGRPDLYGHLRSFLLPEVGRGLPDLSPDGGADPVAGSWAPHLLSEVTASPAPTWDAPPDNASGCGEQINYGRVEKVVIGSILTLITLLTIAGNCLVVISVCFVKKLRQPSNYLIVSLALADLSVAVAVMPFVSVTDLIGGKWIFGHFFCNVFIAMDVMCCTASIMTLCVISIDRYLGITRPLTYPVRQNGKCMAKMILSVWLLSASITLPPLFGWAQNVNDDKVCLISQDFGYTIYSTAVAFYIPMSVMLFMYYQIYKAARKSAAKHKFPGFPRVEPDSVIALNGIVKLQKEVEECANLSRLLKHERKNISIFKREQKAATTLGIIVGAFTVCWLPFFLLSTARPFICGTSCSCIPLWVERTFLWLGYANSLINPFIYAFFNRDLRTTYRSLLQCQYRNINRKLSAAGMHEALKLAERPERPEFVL
UniProt P28223, whole entry, looked up: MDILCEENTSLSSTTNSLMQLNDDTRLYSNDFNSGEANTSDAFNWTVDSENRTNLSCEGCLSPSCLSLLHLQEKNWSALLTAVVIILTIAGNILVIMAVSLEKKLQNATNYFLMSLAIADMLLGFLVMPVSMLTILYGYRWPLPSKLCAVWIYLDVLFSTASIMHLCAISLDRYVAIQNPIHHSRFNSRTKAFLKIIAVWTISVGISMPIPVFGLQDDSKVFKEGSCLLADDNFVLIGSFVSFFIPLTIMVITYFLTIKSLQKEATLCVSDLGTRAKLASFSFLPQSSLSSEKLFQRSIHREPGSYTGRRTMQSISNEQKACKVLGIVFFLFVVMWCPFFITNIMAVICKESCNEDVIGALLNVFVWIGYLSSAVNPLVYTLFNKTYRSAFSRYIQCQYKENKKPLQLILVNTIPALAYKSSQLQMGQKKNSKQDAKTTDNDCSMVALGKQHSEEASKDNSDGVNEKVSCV

[6] = biological target: h5-HT2AR (Homo sapiens, UniProt P28223); details: 5-HT2AR
[7] = biological target: h5-HT7b (Homo sapiens, UniProt P34969); details: 5-HT7R
[8] = pH 1.2 and 8.0
[9] = tested on: Salmonella Typhimurium tester strains TA98, TA100, TA1535, and TA1537
[10] = tested on: Na+/K+ ATPase; details: 10 μM
[11] = tested on: PDE3; details: 10 μM
[12] = tested on: PDE4; details: 10 μM
[13] = tested on: Protein Set/Thr Kinase; details: 10 μM
[14] = tested on: GABAA Chloride channel, TBOB; details: 10 μM
[15] = tested on: GABAA Flunitrazepam, Central; details: 10 μM
[16] = tested on: GABAA Ro-15-1788, Hippocampus; details: 10 μM
[17] = tested on: Glutamate AMPA; details: 10 μM
[18] = tested on: Glutamate Kainate; details: 10 μM
[19] = tested on: Glutamate NMDA, Agonism; details: 10 μM
[20] = tested on: Glutamate NMDA, Phencyclidine; details: 10 μM
[21] = tested on: Glutamate NMDA, Polyamine; details: 10 μM
[22] = tested on: Glycine, Strychnine-sensitive; details: 10 μM
[23] = tested on: Nicotinic Acetylcholine; details: 10 μM
[24] = tested on: Potassium Channel [K ATP]; details: 10 μM
[25] = tested on: Sodium Channel, Site 2
[26] = tested on: Adenosine Transporter; details: 10 μM
[27] = in vivo; details: male, Lister Hooded, rat, po, 3 mg/kg
[28] = biological target: T2, 5-HT6R (Homo sapiens, UniProt P50406); assay: 5-HT6R constitutive activity at Gs signaling (cAMP BRET sensor CAMYEL, NG108-15 cells); assay type: cell-based; details: agonist-independent Gs signaling
T2 construct: expressed in transfected cells; host or cells: NG108-15

[29] = tested on: NG108-15 cells transfected with GFP-tagged 5-HT6R; details: 1 μM, 24 h

O=S(=O)(c1cccc(Cl)c1)n1ccc2c(N[C@H]3CCNC3)nc3ccccc3c21 [CPPQ, (S)-1-[(3-chlorophenyl)sulfonyl]-4-(pyrrolidine-3-yl-amino)-1H-pyrrolo[3,2-c]quinolone]
effect on PCP-induced hyperactivity ([1]; CPPQ alone IP (0.3, 1 mg/kg), AUC 0–120 min post-PCP): did not increase activity | effect on spontaneous activity ([2]; CPPQ 3 mg/kg IP): sedative-like action

CN1CCN(c2nc3ccccc3c3[nH]ccc23)CC1 [Compound 5d, 4-(4-Methylpiperazin-1-yl)-1H-pyrrolo[3,2-c]quinoline]
agonist effect [3]: 100 (100 nM) %

O=S(=O)(c1ccccc1)n1ccc2c(N[C@H]3CCNC3)nc3ccccc3c21 [Compound 8, (S)-1-(Phenylsulfonyl)-N-(pyrrolidin-3-yl)-1H-pyrrolo[3,2-c]quinolin-4-amine dihydrochloride]
antagonist effect [4]: 93%

O=S(=O)(c1ccccc1)n1ccc2c(NC3CNC3)nc3ccccc3c21 [Compound 9, N-(Azetidin-3-yl)-1-(phenylsulfonyl)-1H-pyrrolo[3,2-c]quinolin-4-amine dihydrochloride]
antagonist effect [4]: 15%

CNC1CCN(c2nc3ccccc3c3c2ccn3S(=O)(=O)c2ccccc2)C1 (stereo not shown) [Compound 10, N-Methyl-1-(1-(phenylsulfonyl)-1H-pyrrolo[3,2-c]quinolin-4-yl)pyrrolidin-3-amine dihydrochloride]
antagonist effect [4]: 78%

O=S(=O)(c1ccccc1)n1ccc2c(N3CCCNCC3)nc3ccccc3c21 [Compound 11, 4-(1,4-Diazepan-1-yl)-1-(phenylsulfonyl)-1H-pyrrolo[3,2-c]quinoline dihydrochloride]
antagonist effect [4]: 41%

O=S(=O)(c1cccc(F)c1)n1ccc2c(N3CCNCC3)nc3ccccc3c21 [FPPQ, 1-[(3-Fluorophenyl)sulfonyl]-4-(piperazin-1-yl)-1H-pyrrolo[3,2-c]quinoline dihydrochloride]
pIC50 [5]: 5.30 | pKi [5]: 5.54 | pKi [6]: 5.52 | pKi [7]: 5.52 | chemical stability [8]: chemically stable | mutagenic potential ([9]; Salmonella mutagenic test): no mutagenic potential | Number of revertants ([9]; TA-98, 0.4 μg/ml): 8 ± 4 revertants/plate | Number of revertants ([9]; TA-98, 4 μg/ml): 10 ± 2 revertants/plate | Number of revertants ([9]; TA-98, 8 μg/ml): 8 ± 3 revertants/plate | Number of revertants ([9]; TA-100, 4 μg/ml): 8 ± 3 revertants/plate | Number of revertants ([9]; TA-100, 8 μg/ml): 8 ± 3 revertants/plate | Number of revertants ([9]; TA-1535, 4 μg/ml): 8 ± 4 revertants/plate | Number of revertants ([9]; TA-1537, 16 μg/ml): 8 ± 2 revertants/plate | effect on PCP-induced hyperactivity ([1]; 1 and 3 mg/kg PO, AUC 0–60 min post-PCP (5 mg/kg SC)): decreased PCP-induced hyperactivity | effect on PCP-induced hyperactivity ([1]; 1 and 3 mg/kg PO, AUC 65–120 min post-PCP (5 mg/kg SC)): decreased PCP-induced hyperactivity | effect on spontaneous activity ([2]; 1 and 3 mg/kg PO): no sedative effects | %inh [10]: 1% | %inh [11]: 10% | %inh [12]: 24% | %inh [13]: -20% | %inh [14]: 8% | %inh [15]: 8% | %inh [16]: -5% | %inh [17]: 8% | %inh [18]: -2% | %inh [19]: -2% | %inh [20]: 4% | %inh [21]: 2% | %inh [22]: -1% | %inh [23]: -6% | %inh [24]: 1% | pIC50 [25]: 6.11 | pKi [25]: 6.15 | %inh ([25]; 10 nM, additional batch): 9% | %inh ([25]; 0.1 μM): 23% | %inh ([25]; 1 μM): 47% | %inh ([25]; 10 μM): 94% | %inh ([25]; 10 μM, additional batch): 93% | %inh [26]: 12% | Tmax [27]: 3 to 5 h

O=S(=O)(c1ccccc1)c1cnc2c(N3CCNCC3)cccc2c1 [intepirdine]
effect on basal cAMP level [28]: strongly decreased basal cAMP level | effect on neurite growth / neurite length [29]: reduced NG108-15 cell neurite length

Reference: paper PMC8474115 (Journal of Medicinal Chemistry, 2021)
